Experimental data as given in patent US20260035340A1, “INHIBITORS OF AKR1C3 AND METHODS OF USE” (BOARD OF REGENTS OF THE UNIVERSITY OF NEBRASKA, priority 2022, published 2026).

Chains of the proteins cited; added tags and fusions are not shown. Lines headed by an entry give the natural chain unless they say otherwise; changes in a name come on top.
UniProt P42330: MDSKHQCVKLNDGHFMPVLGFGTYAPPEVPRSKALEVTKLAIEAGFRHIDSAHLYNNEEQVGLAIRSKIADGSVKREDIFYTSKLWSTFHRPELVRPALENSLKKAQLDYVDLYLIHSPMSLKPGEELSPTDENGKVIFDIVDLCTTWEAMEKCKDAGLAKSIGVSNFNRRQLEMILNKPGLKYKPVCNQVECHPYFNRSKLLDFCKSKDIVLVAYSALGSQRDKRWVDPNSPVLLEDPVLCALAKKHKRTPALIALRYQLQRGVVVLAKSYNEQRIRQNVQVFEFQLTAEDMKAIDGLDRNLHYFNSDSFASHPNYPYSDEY

Target: AKR1C3 (Homo sapiens (Human), UniProt P42330)
Assay: AKR enzyme inhibition assay, NADP+ dependent oxidation of S-tetralol, AKR1C3
Assay type: biochemical

## Cc1ccc(CNC(=O)c2cc(/C=C/C(=O)O)cc(-c3ccc(Br)cc3)c2)cc1 [Compound A1-b, (E)-3-(4′-Bromo-5-((4-methylbenzyl)carbamoyl)-[1,1′-biphenyl]-3-yl)acrylic acid]
Table 2, ratio of AKR1C2 to AKR1C3 IC50
  Selectivity 1C2:1C3: 277

## Cc1ccc(CNC(=O)c2cc(/C=C/C(=O)O)cc(-c3ccc4c(c3)OCO4)c2)cc1 [Compound A1-t, (E)-3-(3-(Benzo[d][1,3]dioxol-5-yl)-5-((4-methylbenzyl)carbamoyl)phenyl)acrylic acid]
AKR1C3 over AKR1C2
  selectivity over AKR1C2: 327 fold
